{
  "source": "paper PMC5909127",
  "about": "“Optimization of a “bump-and-hole” approach to allele-selective BET bromodomain inhibition” (Chemical Science, 2018)",
  "key": {"BRDT BD1 L/V": {"biological_target": "BRDT BD1 L/V (Homo sapiens, UniProt Q58F21, L63V)", "assay": "competitive AlphaLISA", "assay_type": "binding"}, "BRD4 BD2 L/V [1]": {"biological_target": "T1, BRD4 BD2 L/V (Homo sapiens, UniProt O60885, L387V)", "assay": "competitive AlphaLISA", "assay_type": "binding"}, "BRD3 BD2 WT": {"biological_target": "BRD3 BD2 WT (Homo sapiens, UniProt Q15059)", "assay": "competitive AlphaLISA", "assay_type": "binding"}, "BRD4 BD2 L/V [2]": {"biological_target": "T1, BRD4 BD2 L/V", "assay": "ITC", "assay_type": "binding"}, "BRD3 BD1 L/V": {"biological_target": "BRD3 BD1 L/V (Homo sapiens, UniProt Q15059, L70V)", "assay": "ITC", "assay_type": "binding", "conditions": "ITC stoichiometry"}, "BRD2 BD2 L/V [3]": {"biological_target": "T2, BRD2 BD2 L/V (Homo sapiens, UniProt P25440, L383V)", "assay": "competitive AlphaLISA", "assay_type": "binding", "conditions": "read-out: AlphaLISA pIC50 Value BRD2 BD2 L/V (converted)"}, "BRD4 BD2 WT": {"biological_target": "BRD4 BD2 WT (Homo sapiens, UniProt O60885)", "assay": "ITC", "assay_type": "binding"}, "BRD3 BD2 L/V": {"biological_target": "BRD3 BD2 L/V (Homo sapiens, UniProt Q15059, L345V)", "assay": "ITC", "assay_type": "binding", "conditions": "ITC stoichiometry"}, "BRD4 BD1 WT": {"biological_target": "BRD4 BD1 WT (Homo sapiens, UniProt O60885)", "assay": "ITC", "assay_type": "binding"}, "[4]": {"biological_target": "L/V BET bromodomains (BD1 and BD2 of BRD2, BRD3 and BRD4)", "assay": "competitive AlphaLISA (Bio-JQ1 displacement)", "assay_type": "binding, human", "conditions": "mean and SD of all somatic bromodomains; active enantiomer concentration"}, "BRD2 BD2 L/V [5]": {"biological_target": "T2, BRD2 BD2 L/V", "assay": "ITC", "assay_type": "binding", "conditions": "ITC stoichiometry"}, "BRD4 BD1 L/V [6]": {"biological_target": "T3, BRD4 BD1 L/V (Homo sapiens, UniProt O60885, L94V)", "assay": "ITC", "assay_type": "binding"}, "[7]": {"biological_target": "L/V somatic BET bromodomains", "assay": "ITC", "conditions": "mean and SD of all somatic bromodomains"}, "BRD2 BD1 L/V": {"biological_target": "BRD2 BD1 L/V (Homo sapiens, UniProt P25440, L110V)", "assay": "ITC", "assay_type": "binding", "conditions": "ITC stoichiometry"}, "BRD4 BD1 L/V [8]": {"biological_target": "T3, BRD4 BD1 L/V", "assay": "competitive AlphaLISA", "assay_type": "binding"}},
  "data": [
    {"smiles": "COC(=O)[C@H](C)[C@@H]1N=C(c2ccc(Cl)cc2)c2cc(OC)ccc2-n2c(C)nnc21", "note": "(relative stereo) [Compound 3]", "values": [
      {"measurement": "IC50", "setting": "BRDT BD1 L/V", "result": 50.1, "unit": "nM"},
      {"measurement": "IC50", "setting": "BRD4 BD2 L/V [1]", "result": 50.1, "unit": "nM"},
      {"measurement": "IC50", "setting": "BRD3 BD2 WT", "result": 501, "unit": "nM"}
    ]},
    {"smiles": "CCNC(=O)[C@H](C)[C@@H]1N=C(c2ccc(Cl)cc2)c2cc(OC)ccc2-n2c(C)nnc21", "note": "(relative stereo) [Compound 16]", "values": [
      {"measurement": "Kd", "setting": "BRD4 BD2 L/V [2]", "result": 80, "unit": "nM"},
      {"measurement": "ΔH BRD4 BD2 L/V", "setting": "BRD4 BD2 L/V [2]; ITC", "result": -8.6, "unit": "kcal/mol"},
      {"measurement": "N BRD4 BD2 L/V", "setting": "BRD4 BD2 L/V [2]; ITC stoichiometry", "result": 0.83},
      {"measurement": "N BRD3 BD1 L/V", "setting": "BRD3 BD1 L/V", "result": 0.64},
      {"measurement": "IC50", "setting": "BRD2 BD2 L/V [3]", "result": 251, "unit": "nM"},
      {"measurement": "ΔH BRD4 BD2 WT", "setting": "BRD4 BD2 WT; ITC", "result": -3.6, "unit": "kcal/mol"},
      {"measurement": "N BRD4 BD2 WT", "setting": "BRD4 BD2 WT; ITC stoichiometry", "result": 0.81},
      {"measurement": "IC50", "setting": "BRD4 BD2 L/V [1]", "result": 251, "unit": "nM"},
      {"measurement": "N BRD3 BD2 L/V", "setting": "BRD3 BD2 L/V", "result": 0.74},
      {"measurement": "ΔH BRD4 BD1 WT", "setting": "BRD4 BD1 WT; ITC", "result": -10.2, "unit": "kcal/mol"},
      {"measurement": "N BRD4 BD1 WT", "setting": "BRD4 BD1 WT; ITC stoichiometry", "result": 0.96},
      {"measurement": "AlphaLISA pIC50 ± SD L/V", "setting": "[4]", "result": "6.7 ± 0.2"},
      {"measurement": "N BRD2 BD2 L/V", "setting": "BRD2 BD2 L/V [5]", "result": 0.62},
      {"measurement": "Kd", "setting": "BRD4 BD1 L/V [6]", "result": 160, "unit": "nM"},
      {"measurement": "ΔH BRD4 BD1 L/V", "setting": "BRD4 BD1 L/V [6]; ITC", "result": -9.5, "unit": "kcal/mol"},
      {"measurement": "N BRD4 BD1 L/V", "setting": "BRD4 BD1 L/V [6]; ITC stoichiometry", "result": 0.92},
      {"measurement": "ITC pKd ± SD L/V", "setting": "[7]", "result": "6.9 ± 0.2"},
      {"measurement": "N BRD2 BD1 L/V", "setting": "BRD2 BD1 L/V", "result": 0.75},
      {"measurement": "IC50", "setting": "BRD4 BD1 L/V [8]", "result": 251, "unit": "nM"}
    ]}
  ]
}
